AlphaSeq binding of Ab-95 light chain variants to a spike HR2 peptide

From the AlphaSeq antibody data of Engelhart et al. 2022 (doi:10.1038/s41597-022-01779-4), copy in the FLAb collection.

Antigen: PDVDLGDISGINAS, a 14-residue peptide of the SARS-CoV-2 spike HR2 region.

Parent: Ab-95, a human scFv built as VH, a (GGGGS)3 linker, VL. Only the CDRs of the light chain vary.
VH: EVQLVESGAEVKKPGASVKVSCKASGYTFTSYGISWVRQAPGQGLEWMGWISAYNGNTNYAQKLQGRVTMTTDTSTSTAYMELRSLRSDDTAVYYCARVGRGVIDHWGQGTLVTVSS
VL: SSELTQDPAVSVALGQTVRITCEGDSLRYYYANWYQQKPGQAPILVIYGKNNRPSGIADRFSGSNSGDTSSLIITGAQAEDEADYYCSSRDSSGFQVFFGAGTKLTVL

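The starting antibody came from a phage panning campaign against this peptide. The library (AAYL52) carries one to three amino acid substitutions per variant, with no insertions or deletions. Affinity was read by AlphaSeq, a pooled yeast mating assay with surface-displayed partners. Mating (16 h, 30 °C) was followed by selection of diploids and sequencing of their barcodes. Scores were corrected for input abundance and mapped to Kd with protein pairs of known affinity run in the same pool. There are three technical replicates.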

Substitutions are numbered in sequence along the VL above, starting at 1 (not Kabat).
This list gathers variants with a substitution at Y30 (VL, numbered from residue 1).
Affinities are written as log10 Kd with Kd in nM; a lower number is a better binder.
Averages over replicates are reported, and they cover detected replicates only.
"nd" marks a missing value. The strain was present, yet no cells mated with the target were sequenced in that replicate, which points to weak or no binding.

The variant Y30L+N51H+S55Y showed 4.03, 3.27, 3.99 (mean 3.76).
The variant R28L+Y30Q+S89Y showed 3.22, nd, nd.
The variant E23H+Y30N+N52M showed 0.54, 0.48, -0.09 (mean 0.31).
The variant R28S+Y30C+N51C showed nd, nd, nd.
The variant Y30I showed 2.79, 2.53, 2.26 (mean 2.53).
The variant G24M+Y30R+G49D showed 1.49, 1.56, 1.29 (mean 1.45).
The variant R28P+Y30M+G94V showed 4.03, nd, nd.
The variant Y30F+S89R+S93N showed 3.65, 4.70, nd (mean 4.18).
The variant D25S+Y30V+D91P showed 2.60, 1.94, 2.08 (mean 2.21).
The variant Y30V+S92V showed 2.12, 1.65, 1.91 (mean 1.89).
The variant E23M+Y30N+Y31P showed 1.15, 0.97, 0.56 (mean 0.90).
The variant Y30L+D91N+F98Y showed nd, nd, nd.
The variant L27D+Y30T+R53F showed nd, nd, nd.
The variant Y30A+G49C+F98I showed 3.42, 4.20, nd (mean 3.81).
The variant Y29T+Y30L+S88M showed 1.58, 1.33, 1.00 (mean 1.30).
The variant D25G+Y30G+F98G showed 2.11, 1.87, 1.70 (mean 1.89).
The variant Y29G+Y30P+F98H showed 1.86, 1.77, 1.20 (mean 1.61).
The variant Y30L+S55G+G94M showed 3.24, 2.92, 3.32 (mean 3.16).
The variant Y30V+R53H+S89C showed 2.10, 2.18, 1.82 (mean 2.03).
The variant Y30N+F95I showed 1.09, 1.38, 0.56 (mean 1.01).
The variant Y30F+S88L+G94S showed 2.68, 3.90, 3.16 (mean 3.25).
The variant L27W+Y30N+N33T showed 1.33, 1.50, 0.62 (mean 1.15).
The variant Y29E+Y30L+Y31P showed 1.92, 2.25, 2.07 (mean 2.08).
The variant G24C+Y30D showed 2.58, 2.65, 2.51 (mean 2.58).
The variant G24R+Y30T+F95T showed 2.59, 2.44, 2.43 (mean 2.48).
The variant G24T+Y30E+S92A showed 1.96, 2.27, 1.64 (mean 1.96).
The variant Y30F+S55T+S92G showed 3.93, 3.42, 3.71 (mean 3.69).
The variant Y29S+Y30V+Y31G showed 1.34, 1.02, 0.65 (mean 1.00).
The variant Y30C+N52L+F95K showed 2.32, 2.86, 2.38 (mean 2.52).
The variant Y30Q+S55V+S93K showed 0.72, 0.59, -0.10 (mean 0.40).
The variant G24R+Y30T+K50F showed 3.10, 2.91, 3.58 (mean 3.20).
The variant R28E+Y30N+F95A showed 1.21, 1.26, 0.72 (mean 1.07).
The variant Y30T+R90N+V97E showed 2.18, 2.60, 2.41 (mean 2.39).

From the list, the first 3 with no signal in any replicate:

changes	log10 Kd, replicates	log10 Kd (nM), mean
R28S+Y30C+N51C	nd, nd, nd	nd
Y30L+D91N+F98Y	nd, nd, nd	nd
L27D+Y30T+R53F	nd, nd, nd	nd

Background: pairings of library AAYL52 with three empty control strains gave a value in 28% of cases (median 3.91, 5th percentile 2.90). Values in that range, when seen in few replicates, are hard to tell from nonspecific mating.
For reference, the parent read 2.31 as the reference entry and 2.25 as a member of this library.